Patent publication US20250051345A1, “PYRIDINE-3-CARBOXYLATE COMPOUNDS AS CAV1.2 ACTIVATORS” (Novartis AG, priority 2021, published 2025)

Chains of the proteins cited; added tags and fusions are not shown.
UniProt Q13936, whole entry: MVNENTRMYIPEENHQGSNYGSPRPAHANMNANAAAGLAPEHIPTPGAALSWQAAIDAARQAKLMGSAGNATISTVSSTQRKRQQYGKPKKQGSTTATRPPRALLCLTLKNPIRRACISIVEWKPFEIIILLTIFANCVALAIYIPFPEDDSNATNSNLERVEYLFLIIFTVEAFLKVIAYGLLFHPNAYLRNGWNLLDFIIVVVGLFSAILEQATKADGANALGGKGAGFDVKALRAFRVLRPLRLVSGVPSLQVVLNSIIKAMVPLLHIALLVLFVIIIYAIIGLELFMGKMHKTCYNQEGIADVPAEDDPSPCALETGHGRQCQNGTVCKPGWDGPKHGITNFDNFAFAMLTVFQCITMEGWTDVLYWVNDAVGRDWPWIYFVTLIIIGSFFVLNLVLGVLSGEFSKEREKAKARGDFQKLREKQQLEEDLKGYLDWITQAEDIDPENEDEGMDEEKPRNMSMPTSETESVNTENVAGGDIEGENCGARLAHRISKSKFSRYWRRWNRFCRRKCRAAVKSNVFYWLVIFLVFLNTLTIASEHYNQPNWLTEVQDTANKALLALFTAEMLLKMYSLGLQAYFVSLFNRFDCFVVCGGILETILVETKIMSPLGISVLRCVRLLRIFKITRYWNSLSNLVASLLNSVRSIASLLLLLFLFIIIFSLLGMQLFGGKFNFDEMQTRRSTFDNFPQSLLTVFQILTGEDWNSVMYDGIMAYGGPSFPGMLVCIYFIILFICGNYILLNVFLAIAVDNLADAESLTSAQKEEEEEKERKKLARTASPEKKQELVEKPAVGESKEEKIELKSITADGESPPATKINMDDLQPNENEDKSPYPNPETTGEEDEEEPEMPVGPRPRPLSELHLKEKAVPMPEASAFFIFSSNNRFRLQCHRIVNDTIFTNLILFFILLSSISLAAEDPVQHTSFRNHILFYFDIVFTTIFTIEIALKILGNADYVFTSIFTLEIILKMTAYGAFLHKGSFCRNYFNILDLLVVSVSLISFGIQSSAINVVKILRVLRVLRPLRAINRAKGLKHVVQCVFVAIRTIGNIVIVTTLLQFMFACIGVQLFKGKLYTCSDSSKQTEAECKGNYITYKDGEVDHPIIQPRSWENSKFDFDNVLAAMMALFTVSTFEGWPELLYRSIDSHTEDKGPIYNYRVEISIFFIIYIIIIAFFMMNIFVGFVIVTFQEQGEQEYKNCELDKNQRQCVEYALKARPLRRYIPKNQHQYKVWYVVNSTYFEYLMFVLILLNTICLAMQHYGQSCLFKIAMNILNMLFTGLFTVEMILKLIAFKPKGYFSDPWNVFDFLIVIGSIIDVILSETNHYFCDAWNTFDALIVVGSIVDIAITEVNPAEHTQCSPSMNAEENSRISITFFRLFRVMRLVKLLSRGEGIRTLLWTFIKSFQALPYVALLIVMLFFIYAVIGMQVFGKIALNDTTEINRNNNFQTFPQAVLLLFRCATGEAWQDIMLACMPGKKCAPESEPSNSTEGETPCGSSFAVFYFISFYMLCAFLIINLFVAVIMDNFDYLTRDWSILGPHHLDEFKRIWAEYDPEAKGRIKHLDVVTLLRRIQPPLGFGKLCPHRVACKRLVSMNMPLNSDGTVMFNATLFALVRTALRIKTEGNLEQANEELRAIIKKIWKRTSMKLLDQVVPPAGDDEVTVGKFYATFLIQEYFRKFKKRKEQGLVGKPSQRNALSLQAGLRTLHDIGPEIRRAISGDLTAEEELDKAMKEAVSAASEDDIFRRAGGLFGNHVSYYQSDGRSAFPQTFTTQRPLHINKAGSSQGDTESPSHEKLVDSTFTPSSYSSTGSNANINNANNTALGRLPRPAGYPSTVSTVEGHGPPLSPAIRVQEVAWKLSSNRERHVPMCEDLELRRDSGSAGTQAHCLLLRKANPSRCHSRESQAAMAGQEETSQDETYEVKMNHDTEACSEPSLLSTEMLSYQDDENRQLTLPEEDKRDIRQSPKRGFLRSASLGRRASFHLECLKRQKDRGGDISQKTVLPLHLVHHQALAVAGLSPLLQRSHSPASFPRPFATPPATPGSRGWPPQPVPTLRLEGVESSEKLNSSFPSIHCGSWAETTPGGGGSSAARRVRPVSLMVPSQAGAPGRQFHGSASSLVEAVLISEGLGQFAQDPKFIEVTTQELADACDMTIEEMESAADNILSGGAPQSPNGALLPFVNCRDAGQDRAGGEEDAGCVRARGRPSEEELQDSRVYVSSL

Biological target: human Cav1.2 (Homo sapiens (Human), UniProt Q13936)
Test: Sophion QPatch dose-response assay, whole-cell voltage clamp of barium currents in the Cav1.2-HEK293 (AUX) cell line
Format: cell-based
[1] = maximal fold change of peak inward current

SMILES | QPatch Emax (fold change of peak inward current at 10 μM) [at] | QPatch Emax [1]
CCc1ccncc1[C@H]1C(C(=O)OC)=C(CF)NC2=C1C(=O)OC2 (single isomer, unassigned) | 2.4 | –
CCc1c(F)cncc1[C@H]1C(C(=O)OC)=C(CF)NC2=C1C(=O)OC2 (single isomer, unassigned) | – | 1.7
CCc1c(F)cncc1[C@H]1C(C(=O)OC)=C(C)NC2=C1C(=O)OC2 (single isomer, unassigned) | – | 2.9
